# Results as given in BindingDB's records for US8530494.
# Protein sequences, listed by entry. Tags and fused reporters are not part of them.
# UniProt P41146, whole entry: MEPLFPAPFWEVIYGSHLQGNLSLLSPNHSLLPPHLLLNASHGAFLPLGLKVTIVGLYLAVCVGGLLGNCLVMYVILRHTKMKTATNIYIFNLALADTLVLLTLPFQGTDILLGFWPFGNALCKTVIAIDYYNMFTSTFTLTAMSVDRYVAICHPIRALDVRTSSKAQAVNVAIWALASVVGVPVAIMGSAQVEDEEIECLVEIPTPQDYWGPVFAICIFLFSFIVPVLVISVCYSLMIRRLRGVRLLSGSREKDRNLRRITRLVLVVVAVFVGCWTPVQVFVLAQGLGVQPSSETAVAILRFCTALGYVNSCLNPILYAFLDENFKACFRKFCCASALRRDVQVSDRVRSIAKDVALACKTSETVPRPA
# UniProt P41145, whole entry: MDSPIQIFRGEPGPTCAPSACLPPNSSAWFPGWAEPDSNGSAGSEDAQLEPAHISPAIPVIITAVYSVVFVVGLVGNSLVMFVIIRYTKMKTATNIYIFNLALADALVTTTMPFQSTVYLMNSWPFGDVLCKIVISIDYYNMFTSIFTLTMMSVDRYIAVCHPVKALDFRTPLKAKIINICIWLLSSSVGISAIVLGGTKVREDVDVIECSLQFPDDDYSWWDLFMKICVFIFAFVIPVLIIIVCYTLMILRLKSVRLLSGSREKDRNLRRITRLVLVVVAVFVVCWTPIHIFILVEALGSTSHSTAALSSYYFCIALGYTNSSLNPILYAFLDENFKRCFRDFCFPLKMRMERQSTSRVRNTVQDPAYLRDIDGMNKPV
# How the values were obtained:
# [1] = target: Nociceptin receptor (Homo sapiens, UniProt P41146); assay: ASSAY_NAME: Binding Assay DESCRIPTION: Binding assay of certain compounds of this invention to the opioid receptor was determine using radioligand binding assay (screening and dose-displacement).
# [2] = target: Kappa-type opioid receptor (Homo sapiens, UniProt P41145); assay: as above
SMILES,Ki [1] [nM],Ki [2] [nM]
COc1ccc2c3c1O[C@H]1[C@@]4(OC)CC[C@@]5(C[C@@H]4COc4ccccc4)[C@@H](C2)N(C)CC[C@]315,2570,–
COc1ccc2c3c1O[C@H]1[C@@]4(OC)CC[C@@]5(C[C@@H]4COCc4ccc(OC(F)(F)F)cc4)[C@@H](C2)N(C)CC[C@]315,–,5.71
